## Yeast mating assay 2: variants of the scFv Ab-91

The measurements come from Engelhart et al. 2022 (doi:10.1038/s41597-022-01779-4) through the FLAb antibody collection.

Antigen: PDVDLGDISGINAS, a 14-residue peptide of the SARS-CoV-2 spike HR2 region.

Each scFv is VL, the linker GGGGSGGGGSGGGGS, VH, as in the parent Ab-91, and differs from it in the CDRs of the heavy chain only.
VL: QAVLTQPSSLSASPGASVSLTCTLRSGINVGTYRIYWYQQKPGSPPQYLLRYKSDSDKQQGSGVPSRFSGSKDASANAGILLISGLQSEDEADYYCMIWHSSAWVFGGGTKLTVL
VH: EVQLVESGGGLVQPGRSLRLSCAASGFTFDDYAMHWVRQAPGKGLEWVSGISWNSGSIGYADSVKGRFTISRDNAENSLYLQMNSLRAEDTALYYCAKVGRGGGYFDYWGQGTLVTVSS

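The starting antibody came from a phage panning campaign against this peptide. In library AAYL51, one, two or three CDR residues were substituted; doubles and triples were drawn at random. AlphaSeq pools MATa yeast showing the antibodies with MATalpha yeast showing the peptide. Pairs that bind mate more often; barcode pairs of the diploids are counted by sequencing. A regression on co-assayed BCL2-family reference pairs converts the normalised counts of each replicate to an apparent Kd. There are three technical replicates.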

The parent's heavy chain CDRs are GFTFDDYAMH, GISWNSGSIGYADSVK, VGRGGGYFDY; each variant's own CDRs replace them letter for letter.
Values are log10 of the apparent Kd in nM; lower means stronger binding.
Averages over replicates are reported, and they cover detected replicates only.
A pair that was not seen in that replicate is written "n.d."; this usually means weak binding, but a binder can also be missed.
Nonspecific signal, from three strains lacking the peptide, appeared in 21% of pairings of library AAYL51, centred on 4.54 (5% of these signals below 3.26); values are not corrected for it. For each scFv, signals with the empty controls are counted beside the result, with their mean in brackets.

CDR-H1,CDR-H2,CDR-H3,"replicates, log10 nM",mean log10 Kd (nM),control signals
GFTFDDYAMQ,GISWNSGSIGYADSVK,VGRGGNYFDY,3.95 n.d. 4.82,4.38,3 of 9 (4.20)
GATFDDYAMG,GISWNSGSIGYADSVK,VGRGGGYFDL,4.23 n.d. n.d.,4.23,3 of 9 (4.93)
GFTFDDYAMH,GISWNSGSIGDAWSVK,VGRGGGYFDY,n.d. n.d. n.d.,n.d.,0 of 9
GFTFDDYAMH,GISWQSGSIGYADSDK,VPRGGGYFDY,n.d. n.d. n.d.,n.d.,0 of 9
GFTFDDRAMH,GISANSGSIGYADSVK,VGRGGGYFDY,4.91 5.63 n.d.,5.27,5 of 9 (4.68)
GFTFDDYAMH,GISWNSGSIGYADSWN,HGRGGGYFDY,n.d. n.d. n.d.,n.d.,0 of 9
GFTFDDYAMH,GISWCSGWIGYADSVK,VGRGGGIFDY,5.11 n.d. n.d.,5.11,3 of 9 (4.27)
GFTFDDYADH,GIFLNSGSIGYADSVK,VGRGGGYFDY,4.95 5.29 n.d.,5.12,3 of 9 (5.09)
GFTFDDYAMH,GISWCSGSIGYADSVK,VWRGGGYFDY,6.48 5.26 4.04,5.26,4 of 9 (4.79)
DFTFDDYAMH,HISWNSGSIGYADSVW,VGRGGGYFDY,n.d. n.d. n.d.,n.d.,2 of 9 (4.86)
GTTFDDYAMH,GISWNSGSIGYADSVK,VGRGGEQFDY,n.d. 3.52 4.59,4.06,2 of 9 (4.40)
GFTFDDYAMH,GISYNSISIGRADSVK,VGRGGGYFDY,n.d. n.d. n.d.,n.d.,3 of 9 (4.59)
GFDFDDYAMD,GISWNSGSIGYQDSVK,VGRGGGYFDY,n.d. 4.32 n.d.,4.32,4 of 9 (5.46)
SFIFDMYAMH,GISWNSGSIGYADSVK,VGRGGGYFDY,n.d. n.d. n.d.,n.d.,0 of 9
GFTFDDMAMH,GISWLSGSIGVADSVK,VGRGGGYFDY,n.d. 4.24 n.d.,4.24,1 of 9 (4.51)
GFTFDDYAMH,GISWNSGSIGYADHVK,VGRGGGYFFY,n.d. n.d. n.d.,n.d.,3 of 9 (4.56)
DFTFDDYATH,GISWNSGSIGYADSVK,VGRGGGYFDI,n.d. n.d. n.d.,n.d.,0 of 9
GFTLDDYAMH,GISWNSGSIGYADSVK,VGRGGGYCDE,4.79 n.d. n.d.,4.79,0 of 9
GFTFCDYHMH,GISWNSGSIGYADSVK,VGRGGGYEDY,n.d. 5.89 n.d.,5.89,0 of 9
GFTFDDYAKH,GISWNSGSIFYADSKK,VGRGGGYFDY,n.d. n.d. n.d.,n.d.,0 of 9
GFTFDDYAMH,GISWNSGSINYADSVK,VQRGMGYFDY,n.d. n.d. n.d.,n.d.,3 of 9 (3.79)
GFTFPDYQMH,GISWNSGSIGYAQSVK,VGRGGGYFDY,5.44 4.33 6.31,5.36,6 of 9 (4.88)
GFTFDCYAMH,GISWNSGSIGYADSVR,VGRGGGYFMY,1.64 1.79 1.09,1.51,2 of 9 (4.84)
GFTFDDMAMH,GISWNSGSIGGADSVK,VGRGGGYFDY,n.d. n.d. n.d.,n.d.,0 of 9
GFTFDDYAMH,GISWNSGSIGYHDSVK,VYRGGGYFDY,5.42 4.85 5.49,5.25,5 of 9 (4.69)
GLTFDDYWMH,GISWNSGSIGYADSVK,VGRGGCYFDY,n.d. n.d. n.d.,n.d.,0 of 9
GFTFGNYAMN,GISWNSGSIGYADSVK,VGRGGGYFDY,5.14 4.72 n.d.,4.93,6 of 9 (5.23)
GFTFDDYAMH,GISWMSGSIGYASSVK,VGRGGGYFRY,6.11 n.d. 4.69,5.40,5 of 9 (4.39)
GFHFDDYAMH,GIEWNSGSIGYLDSVK,VGRGGGYFDY,4.54 4.78 n.d.,4.66,3 of 9 (4.77)
GFSKPDYAMH,GISWNSGSIGYADSVK,VGRGGGYFDY,4.47 3.58 3.94,3.99,3 of 9 (4.50)
GFMFDDYAMH,GISWNSKSIGYADSVK,VGRGGGYFDY,2.82 3.03 3.08,2.98,2 of 9 (4.56)
GRTFDDYAMH,GISWNSGSIGYADQVK,VGRGGGYFHY,4.92 n.d. 4.49,4.70,4 of 9 (4.46)
GFTFDDYAMH,GISWNSGSIGQADSVK,VGNGGGYWDY,3.50 n.d. n.d.,3.50,0 of 9
GFTFDQYAMH,GISWNSGSIKYADSVK,VGRGNGYFDY,4.19 5.10 5.22,4.83,4 of 9 (4.24)
FFTFDDYAMH,GISANSGSIGYADSVK,VGRGGGYFDY,4.38 n.d. 5.63,5.01,5 of 9 (4.58)
GFTFDDYAMH,GISWNSGSSGYADSVK,DGRGGGYKDY,n.d. n.d. n.d.,n.d.,0 of 9

The 4 strongest on average among those seen in every replicate, once more:

CDR-H1,CDR-H2,CDR-H3,"replicates, log10 nM",mean log10 Kd (nM),control signals
GFTFDCYAMH,GISWNSGSIGYADSVR,VGRGGGYFMY,1.64 1.79 1.09,1.51,2 of 9 (4.84)
GFMFDDYAMH,GISWNSKSIGYADSVK,VGRGGGYFDY,2.82 3.03 3.08,2.98,2 of 9 (4.56)
GFSKPDYAMH,GISWNSGSIGYADSVK,VGRGGGYFDY,4.47 3.58 3.94,3.99,3 of 9 (4.50)
GFTFDQYAMH,GISWNSGSIKYADSVK,VGRGNGYFDY,4.19 5.10 5.22,4.83,4 of 9 (4.24)